From PMC3760392 (Bioorganic & medicinal chemistry, 2013)

Chains of the proteins cited; added tags and fusions are not shown.
UniProt P19020, whole entry: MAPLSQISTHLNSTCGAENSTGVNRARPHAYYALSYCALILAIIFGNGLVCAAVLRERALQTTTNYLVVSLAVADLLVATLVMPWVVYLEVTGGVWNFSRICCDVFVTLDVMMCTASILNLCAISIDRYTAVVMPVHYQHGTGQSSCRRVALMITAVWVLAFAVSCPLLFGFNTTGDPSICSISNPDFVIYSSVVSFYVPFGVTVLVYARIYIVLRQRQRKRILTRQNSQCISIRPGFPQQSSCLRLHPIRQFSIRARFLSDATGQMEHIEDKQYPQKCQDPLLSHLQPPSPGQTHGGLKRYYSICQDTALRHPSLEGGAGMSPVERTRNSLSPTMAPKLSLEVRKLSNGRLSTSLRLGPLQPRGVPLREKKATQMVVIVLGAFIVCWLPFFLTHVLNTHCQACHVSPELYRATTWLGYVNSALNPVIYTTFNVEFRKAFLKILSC

Target: rD3 receptor (Rattus norvegicus, UniProt P19020)
Conditions: ratio of Ki rD2L / Ki rD3

In the case of `CCCN(CCC)[C@H]1CCc2c(O)cccc2C1` [(−)-5-OH-DPAT, reference compound], the D2L/D3 is reported as 43.2.
